This note sets out measurements from patent US7632933B2, “Corticotropin releasing factor 2 receptor agonists” (priority 2002, dated 2009).

One test deals with T1, CRF1R (Homo sapiens, UniProt P34998).
T1 sequence (P34998 24-415): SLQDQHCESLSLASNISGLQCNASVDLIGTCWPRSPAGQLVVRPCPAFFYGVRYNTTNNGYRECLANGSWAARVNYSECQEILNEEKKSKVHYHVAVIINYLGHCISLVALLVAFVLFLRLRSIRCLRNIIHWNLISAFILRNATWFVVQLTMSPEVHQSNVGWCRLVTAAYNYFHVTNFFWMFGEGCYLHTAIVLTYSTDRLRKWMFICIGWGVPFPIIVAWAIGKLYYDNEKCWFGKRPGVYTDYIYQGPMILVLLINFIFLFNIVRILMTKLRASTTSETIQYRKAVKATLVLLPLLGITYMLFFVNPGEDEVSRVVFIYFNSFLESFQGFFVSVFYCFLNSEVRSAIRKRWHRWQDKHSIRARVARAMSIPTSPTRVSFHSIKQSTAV
As to the kind of experiment: CRF1R agonist activity (EC50 and Emax), called comparative CRF binding. The class given is cell-based. To be noted: CRF1R; for EC50: CRF1R EC50 (nM). The method, boiled down: (§1)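 cAMP read-out: lysates of CRF1R- or CRF2R-expressing cells assayed after peptide exposure, compared against vehicle-treated cells; signal from any non-target CRFR subtracted as background.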

For the next test, the target named is T2, CRF2R (Homo sapiens, UniProt Q13324).
T2 sequence (Q13324 1-411): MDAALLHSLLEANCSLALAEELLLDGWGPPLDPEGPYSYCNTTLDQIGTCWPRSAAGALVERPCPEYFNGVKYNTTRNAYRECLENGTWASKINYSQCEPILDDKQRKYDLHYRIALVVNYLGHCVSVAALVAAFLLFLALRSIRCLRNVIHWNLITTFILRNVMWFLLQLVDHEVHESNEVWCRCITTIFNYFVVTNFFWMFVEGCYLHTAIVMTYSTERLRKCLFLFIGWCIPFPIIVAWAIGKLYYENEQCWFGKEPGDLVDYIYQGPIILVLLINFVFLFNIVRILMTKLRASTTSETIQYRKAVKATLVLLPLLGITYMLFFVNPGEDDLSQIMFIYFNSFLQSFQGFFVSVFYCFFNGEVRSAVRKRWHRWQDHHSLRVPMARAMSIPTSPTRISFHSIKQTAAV
As to the kind of experiment: CRF2R agonist activity (EC50 and Emax), called comparative CRF binding. It counts as cell-based. To be noted: CRF2R EC50 (nM), CRF2R. The method, boiled down: as §1

Where only a bound is given, the exact number is not on record here.

In the case of `CC[C@H](C)[C@H](NC(=O)[C@H](CCC(=O)O)NC(=O)[C@@H](NC(=O)[C@H](CCSC)NC(=O)[C@H](CCCCN)NC(=O)[C@H](CCCNC(=N)N)NC(=O)[C@H](CC(C)C)NC(=O)[C@H](CC(C)C)NC(=O)[C@H](CCC(N)=O)NC(=O)[C@H](Cc1ccc(O)cc1)NC(=O)[C@@H]1CCCN1C(=O)[C@H](CC(C)C)NC(=O)[C@H](CC(=O)O)NC(=O)[C@@H](NC(=O)[C@H](CO)NC(=O)[C@@H](NC(=O)[C@@H]1CCCN1C(=O)[C@@H]1CCCN1C(=O)CNC(=O)[C@@H]1CCC(=O)N1)[C@@H](C)CC)[C@@H](C)CC)[C@@H](C)CC)C(=O)N[C@@H](CCC(=O)O)C(=O)N[C@@H](CCCCN)C(=O)N[C@@H](CCC(N)=O)C(=O)N[C@@H](CCC(=O)O)C(=O)N[C@@H](CCCCN)C(=O)N[C@@H](CCC(=O)O)C(=O)N[C@@H](CCCCN)C(=O)N[C@@H](CCC(N)=O)C(=O)N[C@@H](CCC(N)=O)C(=O)N[C@@H](C)C(=O)N[C@@H](C)C(=O)N[C@@H](CC(N)=O)C(=O)N[C@@H](CC(N)=O)C(=O)N[C@@H](C)C(=O)N[C@@H](CCCNC(=N)N)C(=O)N[C@@H](CC(C)C)C(=O)N[C@@H](CC(C)C)C(=O)N[C@@H](C)C(=O)N[C@@H](CCCNC(=N)N)C(N)=O` [compound 288], the values for the concentration giving a half-maximal response (EC50) on CRF1R and at CRF2R were 838 nM and 14.7 nM, respectively. Moreover, at CRF1R (Emax), the “CRF1R (Emax %)” value is given as “(31.65) %”.

Turning to `CC[C@H](C)[C@H](NC(=O)[C@H](CCCNC(=N)N)NC(=O)[C@H](C)NC(=O)[C@H](CC(C)C)NC(=O)[C@H](CC(C)C)NC(=O)[C@H](CCCNC(=N)N)NC(=O)[C@H](C)NC(=O)[C@H](CC(N)=O)NC(=O)[C@H](CC(N)=O)NC(=O)[C@H](C)NC(=O)[C@H](C)NC(=O)[C@H](CCC(N)=O)NC(=O)[C@H](CCC(N)=O)NC(=O)[C@H](CCCCN)NC(=O)[C@H](CCC(=O)O)NC(=O)[C@H](CCCCN)NC(=O)[C@H](CCC(=O)O)NC(=O)[C@H](CCC(N)=O)NC(=O)[C@H](CCCCN)NC(=O)[C@H](CCC(=O)O)NC(=O)[C@@H](NC(=O)[C@H](CCC(=O)O)NC(=O)[C@@H](NC(=O)[C@H](CCSC)NC(=O)[C@H](CCCCN)NC(=O)[C@H](CCCNC(=N)N)NC(=O)[C@H](CC(C)C)NC(=O)[C@H](CC(C)C)NC(=O)[C@@H](NC(=O)[C@@H](NC(=O)[C@@H]1CCCN1C(=O)[C@H](CC(C)C)NC(=O)[C@H](CC(=O)O)NC(=O)[C@@H](NC(=O)[C@H](CO)NC(=O)[C@@H](NC(=O)[C@@H]1CCCN1C(=O)[C@@H]1CCCN1C(=O)CNC(=O)[C@@H]1CCC(=O)N1)[C@@H](C)CC)[C@@H](C)CC)[C@@H](C)CC)[C@@H](C)CC)[C@@H](C)CC)[C@@H](C)CC)C(N)=O` [compound 290], the values for the EC50 at CRF1R and on CRF2R were no less than 1000 nM and no less than 100 nM, respectively.

Turning to `CC[C@H](C)[C@H](NC(=O)[C@H](CCCNC(=N)N)NC(=O)[C@H](C)NC(=O)[C@H](CC(C)C)NC(=O)[C@H](CC(C)C)NC(=O)[C@H](CCCNC(=N)N)NC(=O)[C@H](C)NC(=O)[C@H](CC(N)=O)NC(=O)[C@H](CC(N)=O)NC(=O)[C@H](C)NC(=O)[C@H](C)NC(=O)[C@H](CCC(N)=O)NC(=O)[C@H](CCC(N)=O)NC(=O)[C@H](CCCCN)NC(=O)[C@H](CCC(=O)O)NC(=O)[C@H](CCCCN)NC(=O)[C@H](CCC(=O)O)NC(=O)[C@H](CCC(N)=O)NC(=O)[C@H](CCCCN)NC(=O)[C@H](CCC(=O)O)NC(=O)[C@@H](NC(=O)[C@H](CCC(=O)O)NC(=O)[C@@H](NC(=O)[C@@H](NC(=O)[C@H](CCCCN)NC(=O)[C@H](CCCNC(=N)N)NC(=O)[C@H](CC(C)C)NC(=O)[C@H](CC(C)C)NC(=O)[C@H](Cc1c[nH]c2ccccc12)NC(=O)[C@@H](NC(=O)[C@@H]1CCCN1C(=O)[C@H](CC(C)C)NC(=O)[C@H](CC(=O)O)NC(=O)[C@@H](NC(=O)[C@H](CO)NC(=O)[C@@H](NC(=O)[C@@H]1CCCN1C(=O)[C@@H]1CCCN1C(=O)CNC(=O)[C@@H]1CCC(=O)N1)[C@@H](C)CC)[C@@H](C)CC)[C@@H](C)O)C(C)C)[C@@H](C)CC)[C@@H](C)CC)C(N)=O` [compound 291], the concentration for a half-maximal effect (EC50) on CRF1R is no less than 1000 nM; at CRF2R it was no less than 100 nM.

Consider `CC[C@H](C)[C@H](NC(=O)[C@H](CCCNC(=N)N)NC(=O)[C@H](C)NC(=O)[C@H](CC(C)C)NC(=O)[C@H](CC(C)C)NC(=O)[C@H](CCCNC(=N)N)NC(=O)[C@H](C)NC(=O)[C@H](CC(N)=O)NC(=O)[C@H](CC(N)=O)NC(=O)[C@H](C)NC(=O)[C@H](C)NC(=O)[C@H](CCC(N)=O)NC(=O)[C@H](CCC(N)=O)NC(=O)[C@H](CCCCN)NC(=O)[C@H](CCC(=O)O)NC(=O)[C@H](CCCCN)NC(=O)[C@H](CCC(=O)O)NC(=O)[C@H](CCC(N)=O)NC(=O)[C@H](CCCCN)NC(=O)[C@H](CCC(=O)O)NC(=O)[C@@H](NC(=O)[C@H](CCC(=O)O)NC(=O)[C@@H](NC(=O)[C@H](CCSC)NC(=O)[C@H](CCCCN)NC(=O)[C@H](CCCNC(=N)N)NC(=O)[C@H](CC(C)C)NC(=O)[C@H](CC(C)C)NC(=O)[C@H](Cc1c[nH]c2ccccc12)NC(=O)[C@@H](NC(=O)[C@@H]1CCCN1C(=O)[C@H](CC(C)C)NC(=O)[C@H](CC(=O)O)NC(=O)[C@@H](NC(=O)[C@H](CO)NC(=O)[C@@H](NC(=O)[C@@H]1CCCN1C(=O)[C@@H]1CCCN1C(=O)CNC(=O)[C@@H]1CCC(=O)N1)[C@@H](C)CC)[C@@H](C)CC)[C@@H](C)O)[C@@H](C)CC)[C@@H](C)CC)C(N)=O` [compound 292], for which the EC50 was no less than 1000 nM at CRF1R and no less than 100 nM on CRF2R.

Regarding `CC[C@H](C)[C@H](NC(=O)[C@H](CCCNC(=N)N)NC(=O)[C@H](C)NC(=O)[C@H](CC(C)C)NC(=O)[C@H](CC(C)C)NC(=O)[C@H](CCCNC(=N)N)NC(=O)[C@H](C)NC(=O)[C@H](CC(N)=O)NC(=O)[C@H](CC(N)=O)NC(=O)[C@H](C)NC(=O)[C@H](C)NC(=O)[C@H](CCC(N)=O)NC(=O)[C@H](CCC(N)=O)NC(=O)[C@H](CCCCN)NC(=O)[C@H](CCC(=O)O)NC(=O)[C@H](CCCCN)NC(=O)[C@H](CCC(=O)O)NC(=O)[C@H](CCC(N)=O)NC(=O)[C@H](CCCCN)NC(=O)[C@H](CCC(=O)O)NC(=O)[C@@H](NC(=O)[C@H](CCC(=O)O)NC(=O)[C@@H](NC(=O)[C@@H](NC(=O)[C@H](CCCCN)NC(=O)[C@H](CCCNC(=N)N)NC(=O)[C@H](CC(C)C)NC(=O)[C@H](CC(C)C)NC(=O)[C@@H](NC(=O)[C@H](CCC(N)=O)NC(=O)[C@@H]1CCCN1C(=O)[C@H](CC(C)C)NC(=O)[C@H](CC(=O)O)NC(=O)[C@@H](NC(=O)[C@H](CO)NC(=O)[C@@H](NC(=O)[C@@H]1CCCN1C(=O)[C@@H]1CCCN1C(=O)CNC(=O)[C@@H]1CCC(=O)N1)[C@@H](C)CC)[C@@H](C)CC)[C@@H](C)CC)C(C)C)[C@@H](C)CC)[C@@H](C)CC)C(N)=O` [compound 294], the EC50 at CRF1R was no less than 1000 nM; on CRF2R, no less than 100 nM.

As a reminder, the EC50 is the midpoint of the concentration-response curve.
